Kd data for 2 molecules are collected here from article PMC3589550 (Nature structural & molecular biology, 2011).

Sequences of proteins named here, by UniProt entry; tags and fusion partners are left off. Residues count along the entry.
UniProt Q93009, 62-205: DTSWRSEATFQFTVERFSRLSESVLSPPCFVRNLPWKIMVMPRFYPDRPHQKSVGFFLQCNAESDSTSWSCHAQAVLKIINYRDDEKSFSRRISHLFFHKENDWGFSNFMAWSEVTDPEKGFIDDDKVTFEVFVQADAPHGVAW

The target of the test is HAUSP^62–205 (HAUSP TRAF domain) (UniProt Q93009 62-205). The test can be described thus: ITC. In general terms: In ITC the heat of successive injections is recorded.

By Kd is commonly meant the equilibrium constant for the complex coming apart. A low value points to higher affinity. Take SVWIPVNEGASTSGM [vIRF4^202–216 peptide (vif1)]: the Kd was determined as 0.39 µM.
Under EGASTSGM [vIRF4^209–216 peptide] stands 9.57 µM.
